From US9771352B2, “Hydroxyalkyl-substituted phenyltriazole derivatives and uses thereof” (BAYER PHARMA AKTIENGESELLSCHAFT, priority 2014, dated 2017)

Test system: conscious rats
Assay: Diuresis investigations in conscious rats kept in metabolism cages
Conditions: comparative examples of WO 2011/104322 (Table 2B)

COC(=O)Cn1nc(Cn2nc(-c3ccc(Cl)cc3)n(C[C@H](O)C(F)(F)F)c2=O)nc1-c1ccccc1Cl
Urinary volume (dosage p.o. 0.3 mg/kg): 128 % vs. control = 100% | Urinary volume (dosage p.o. 3.0 mg/kg): 85 % vs. control = 100%

NC(=O)Cn1nc(Cn2nc(-c3ccc(Cl)cc3)n(C[C@H](O)C(F)(F)F)c2=O)nc1-c1ccccc1Cl
Urinary volume (dosage p.o. 0.3 mg/kg): 87 % vs. control = 100% | Urinary volume (dosage p.o. 3.0 mg/kg): 121 % vs. control = 100%
